The values below are quoted from earlier work in PMC11904221, “Repression of apelin Furin cleavage sites provides antimetastatic strategy in colorectal cancer” (EMBO Molecular Medicine, 2025).

The conditions of this data set: ref Vickers et al, 2002; cited from earlier work.

Regarding apelin [reference compound], the in vivo half-life is listed as below 5 min.
